Drawing on article PMC3005221, this text covers Kd for 2 substances.

pKd: −log10 of the molar value. Some results are limits rather than exact numbers.

The target in one assay is ubiquitin (Homo sapiens) (UniProt P0CG48). Conditions: cited from earlier work.
Assay [1] concerns the target FITC-β-Ala-β-Ala-ALRGG (human). Nature of the assay: fluorescence polarisation.
Another assay has as its target FITC-β-Ala-β-Ala-FDGFM. Kind of assay: fluorescence polarisation. Background: Fluorescence polarisation rises when a labelled molecule tumbles more slowly, as on binding a larger partner.
The target of a further assay is FITC-β-Ala-β-Ala-PSDHV. Nature of the assay: fluorescence polarisation.
For assay [2], the target named is FITC-β-Ala-β-Ala-RLAGG (human). Kind of assay: fluorescence polarisation.
Assay [3] deals with FITC-β-Ala-β-Ala-RLRAG (human). Kind of assay: fluorescence polarisation.

As usually defined, the pKd is −log10 of the Kd, conventionally taken in molar units. On to Ubp-M BUZ (from UniProt Q9Y5T5), for which the pKd with ubiquitin (Homo sapiens) was 5.19.

In the case of “(His)6-tagged Ubp-M BUZ domain (from UniProt Q9Y5T5 22-143) (domain or fragment)”, the pKd in assay [1] is 5.64; in the assay with FITC-β-Ala-β-Ala-FDGFM, < 3.82; with FITC-β-Ala-β-Ala-PSDHV it was < 3.85; in assay [2] it was 4.80; in assay [3], 4.21.
